Source: patent US9284300B2 (dated 2016)

Chains of the proteins cited; added tags and fusions are not shown. Residues count along the entry.
UniProt P08581, 25-1390: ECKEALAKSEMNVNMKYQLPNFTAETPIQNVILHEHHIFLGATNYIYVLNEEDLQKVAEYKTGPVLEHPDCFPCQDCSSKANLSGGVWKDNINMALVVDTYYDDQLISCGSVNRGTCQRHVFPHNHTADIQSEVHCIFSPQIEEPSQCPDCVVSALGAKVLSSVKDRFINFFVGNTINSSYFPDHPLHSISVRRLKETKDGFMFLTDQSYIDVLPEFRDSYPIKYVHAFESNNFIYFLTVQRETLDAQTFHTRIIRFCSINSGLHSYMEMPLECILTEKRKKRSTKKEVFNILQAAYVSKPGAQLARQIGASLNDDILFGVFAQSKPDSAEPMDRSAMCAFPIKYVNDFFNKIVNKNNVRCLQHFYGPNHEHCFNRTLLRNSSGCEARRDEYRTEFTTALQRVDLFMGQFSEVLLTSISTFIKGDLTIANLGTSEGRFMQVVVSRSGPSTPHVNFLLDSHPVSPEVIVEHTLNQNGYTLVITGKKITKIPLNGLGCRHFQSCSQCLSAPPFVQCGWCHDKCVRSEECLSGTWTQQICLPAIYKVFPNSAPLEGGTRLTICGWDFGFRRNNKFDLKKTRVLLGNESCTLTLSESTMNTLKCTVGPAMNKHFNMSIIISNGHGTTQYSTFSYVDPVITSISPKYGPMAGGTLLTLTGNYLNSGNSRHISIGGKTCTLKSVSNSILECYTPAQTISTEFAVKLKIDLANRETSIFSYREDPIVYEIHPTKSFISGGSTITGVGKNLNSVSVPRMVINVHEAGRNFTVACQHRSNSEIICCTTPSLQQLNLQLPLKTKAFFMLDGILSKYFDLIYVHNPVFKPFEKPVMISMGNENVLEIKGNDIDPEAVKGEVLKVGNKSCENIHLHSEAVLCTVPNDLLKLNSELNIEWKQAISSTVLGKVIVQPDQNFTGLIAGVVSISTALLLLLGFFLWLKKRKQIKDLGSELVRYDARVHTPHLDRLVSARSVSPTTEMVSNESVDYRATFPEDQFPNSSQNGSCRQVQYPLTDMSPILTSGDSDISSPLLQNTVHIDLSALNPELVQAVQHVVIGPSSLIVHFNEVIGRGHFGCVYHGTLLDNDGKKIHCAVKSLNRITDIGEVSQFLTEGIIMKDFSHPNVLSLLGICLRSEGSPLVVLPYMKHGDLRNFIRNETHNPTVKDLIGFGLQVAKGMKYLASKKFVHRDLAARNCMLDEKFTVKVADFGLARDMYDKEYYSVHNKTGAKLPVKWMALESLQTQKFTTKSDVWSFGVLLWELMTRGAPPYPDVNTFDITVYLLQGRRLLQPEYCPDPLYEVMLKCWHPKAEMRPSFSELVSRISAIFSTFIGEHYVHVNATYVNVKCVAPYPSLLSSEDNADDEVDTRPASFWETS

Molecular target: Met kinase (Homo sapiens, UniProt P08581)
Test: Met kinase inhibition, cell assay
Assay type: cell-based

IC50: 1 to 1000 nM
SMILES: Cn1cc(-c2ccc(=O)n(Cc3cccc(-c4ncc(OCCN5CCOCC5)cn4)c3)n2)cn1 [A229, 6-(1-methyl-1H-pyrazol-4-yl)-2-{3-[5-(2-morpholin-4-ylethoxy)pyrimidin-2-yl]benzyl}-2H-pyridazin-3-one]
